According to paper PMC6728138 (2019):
“And” between values parts separate entries of the source, which are not always exact repeats. Equal entries are not always repeated.

molecular target: T1, calcineurin (CN) heterodimer, wild type: N-terminally 6-His-tagged human calcineurin A truncated at residue … (human | , UniProt Q08209 1-400; P63098 1-170)

Binder	Kd [nM]
MAGPHPVIAVTGPHEE [PVIAVT variant of the PVIVIT peptide]	160000

molecular target: T1, calcineurin (CN) heterodimer, wild …; remark: another data set of the same source

Binder	Kd
MAGPHPVIAVTGPHEE [PVIAVT variant of the PVIVIT peptide]	320000 nM
ATDTTPSVVVHVCESD [RCAN1 PxIxIT peptide]	270000 nM
SPRIEITPSH [NFATc2 PxIxIT peptide (WT SPRIEITPSH)]	6200 nM
MAGPHPVIVITGPHEE [PVIVIT peptide (MAGPHPVIVITGPHEE)]	2400 nM and 1300 nM
MAGPHPVIVINGPHEE [PVIVIN variant of the PVIVIT peptide]	58000 nM
PALESPRIEITSCLGL [NFATc1 PxIxIT peptide]	115000 nM
MAGPHPKIVITGPHEE [PKIVIT peptide (PVIVIT scaffold with V2K)]	400 nM
KRMEPIAIIITDTEIS [AKAP79 PxIxIT peptide (KRMEPIAIIITDTEIS)]	24000 nM

molecular target: T1, calcineurin (CN) heterodimer, wild …; remark: another data set of the same source

Binder	Kd [nM]
MAGPHPVIVITGPTEE (phosphothreonine at motif position 9) [PVIVIT peptide with phosphothreonine (Z) at position 9]	20
KRMEPPKIIITDTEIS [AKAP79 PxIxIT peptide with I1 and A2 mutated (PPKIIIT), eGFP fusion]	190
AGPIPKIVITGPHEE [PKIVIT peptide with I at position -1 (IPKIVITGPH)]	70
LPRIEITPSH [NFATc2 PxIxIT peptide with L at position -1 (LPRIEIT)]	1100
AGPHPKIIITGPHEE [PKIVIT peptide with V4I (AGPHPKIIITGPHEE)]	340
MAGPHPRIVITGPHEE [PRIVIT peptide (PVIVIT scaffold with V2R)]	330
SPRIEITPSH [NFATc2 PxIxIT peptide (WT SPRIEITPSH)]	25600
MAGPHPVIVITGPHEE [PVIVIT peptide (MAGPHPVIVITGPHEE)]	500
MAGPIPVIVITGPHEE [PVIVIT peptide with I at position -1]	90
MAGPHPKIVITGPHEE [PKIVIT peptide (PVIVIT scaffold with V2K)]	610
KRMEPIAIIITDTEIS [AKAP79 PxIxIT peptide (KRMEPIAIIITDTEIS)]	1180
SPRIEITASH [NFATc2 PxIxIT peptide with P7A]	4050
